Measured values as given in paper PMC9706575 (Journal of Medicinal Chemistry, 2022).

Amino acid sequences for entries named in this document (tags omitted). Residues count along the entry.
UniProt P29317, 28-206 limits assumed: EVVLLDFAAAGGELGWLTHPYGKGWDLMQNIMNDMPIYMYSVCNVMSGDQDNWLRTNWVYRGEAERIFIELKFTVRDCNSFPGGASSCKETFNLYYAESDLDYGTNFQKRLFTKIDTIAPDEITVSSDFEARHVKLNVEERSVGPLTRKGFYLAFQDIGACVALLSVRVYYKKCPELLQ

How the values were obtained:
[1] = target: T1, EphA2-LBD (Homo sapiens, UniProt P29317); assay: Reverse ITC binding to EphA2-LBD; details: 25 mM Tris pH 7.5, 150 mM NaCl, 25 °C, 1% DMSO
T1 construct: made in house

[2] = target: T1, EphA2-LBD; assay: DELFIA displacement assay; type: binding; details: monomeric agents; 10 nM EphA2 protein

Row | Structure (SMILES) | Kd [1] [nM] | IC50 [2] [nM]
1 | C[C@H](NC(=O)[C@H](CO)NC(=O)[C@H](Cc1ccc(O)cc1)NC(=O)CN1CCNCC1)C(=O)N[C@@H](Cc1ccc(-c2ccccc2)cc1)C(=O)N1CCC[C@H]1C(=O)N[C@@H](CC(=O)O)C(=O)N[C@@H](CO)C(=O)N[C@H](C(=O)N1CCC[C@H]1C(=O)N[C@@H](Cc1ccccc1)C(=O)N[C@@H](CCCNC(=N)N)C(=O)N1CCC[C@H]1C(N)=O)C1CCCCC1 [Compound 31, PiperazineAcAcid-YSA-Bip-PDS-Chg-PFRP-CONH2] | 54 | –
2 | C[C@H](NC(=O)[C@H](CO)NC(=O)[C@H](Cc1ccc(O)cc1)NC(=O)CN1CCNCC1)C(=O)N[C@@H](Cc1ccc(-c2ccccc2)cc1)C(=O)N1CCC[C@H]1C(=O)N[C@@H](CC(=O)O)C(=O)N[C@@H](CO)C(=O)N[C@H](C(=O)N1CCC[C@H]1C(=O)N[C@@H](Cc1ccc(Cl)cc1)C(=O)N[C@@H](CCCNC(=N)N)C(=O)N1CCC[C@H]1C(N)=O)C1CCCCC1 [Compound 32, PiperazAcAcid-YSA-(Bip)-PDS-Chg-P-(4Cl-Phe)-RP-CONH2] | 68 | –
3 | CC(C)C[C@H](NC(=O)[C@H](Cc1ccc(O)cc1)NC(=O)CN1CCNCC1)C(=O)N[C@@H](C)C(=O)N[C@@H](Cc1ccc(-c2ccccc2)cc1)C(=O)N1CCC[C@H]1C(=O)N[C@@H](CC(=O)O)C(=O)N[C@@H](CO)C(=O)N[C@H](C(=O)N1CCC[C@H]1C(=O)N[C@@H](Cc1ccccc1)C(=O)N[C@@H](CCCNC(=N)N)C(=O)N1CCC[C@H]1C(N)=O)C1CCCCC1 [Compound 33, PiperazAcAcid-Y-L-A-(Bip)-PDS-Chg-PFRP-CONH2] | 39 | –
4 | C[C@H](NC(=O)[C@H](CO)NC(=O)[C@H](Cc1ccc2ccccc2c1)NC(=O)CN1CCNCC1)C(=O)N[C@@H](Cc1ccc(-c2ccccc2)cc1)C(=O)N1CCC[C@H]1C(=O)N[C@@H](CC(=O)O)C(=O)N[C@@H](CO)C(=O)N[C@H](C(=O)N1CCC[C@H]1C(=O)N[C@@H](Cc1ccccc1)C(=O)N[C@@H](CCCNC(=N)N)C(=O)N1CCC[C@H]1C(N)=O)C1CCCCC1 [Compound 34, PiperazAcAcid-(2Nal)-SA-(Bip)-PDS-Chg-PFRP-CONH2] | 74 | –
5 | Cc1ccccc1-c1ccc(C[C@H](NC(=O)[C@H](C)NC(=O)[C@H](CC(C)C)NC(=O)[C@H](Cc2ccc3ccccc3c2)NC(=O)CN2CCNCC2)C(=O)N2CCC[C@H]2C(=O)N[C@@H](CC(=O)O)C(=O)N[C@@H](CO)C(=O)N[C@H](C(=O)N2CCC[C@H]2C(=O)N[C@@H](Cc2ccc(Cl)cc2)C(=O)N[C@@H](CCCNC(=N)N)C(=O)N2CCC[C@H]2C(N)=O)C2CCCCC2)cc1 [Compound 36, PiperazAcAcid-(2Nal)-L-A-(2Me-Bip)-PDS-Chg-P-(4Cl-Phe)-RP-CONH2] | – | 30.8
6 | Cc1ccccc1-c1ccc(C[C@H](NC(=O)[C@H](C)NC(=O)[C@H](CC(C)C)NC(=O)[C@H](Cc2ccc(O)cc2)NC(=O)CN2CCNCC2)C(=O)N2CCC[C@H]2C(=O)N[C@@H](CC(=O)O)C(=O)N[C@@H](CO)C(=O)N[C@H](C(=O)N2CCC[C@H]2C(=O)N[C@@H](Cc2ccc(Cl)cc2)C(=O)N[C@@H](CCCNC(=N)N)C(=O)N2CCC[C@H]2C(N)=O)C2CCCCC2)cc1 [Compound 37, PiperazAcAcid-Y-L-A-(2Me-Bip)-PDS-Chg-P-(4Cl-Phe)-RP-CONH2] | 49 | 16.5
